According to patent publication US20200330467A1, “METHOD AND PHARMACEUTICAL COMPOSITIONS FOR THE TREATMENT OF MULTIPLE MYELOMA” (priority 2016, published 2020):

Test system: primary myeloma cells from patients
Settings: co-cultured with bone marrow environment and recombinant IL-6, n=8
From the text: Results are median values of the numbers of myeloma cells in the culture wells.

COc1cc2nc(N3CCCC3)nc(NCCCCCN3CCCC3)c2cc1OC [UNC0379]
apoptosis of primary myeloma cells: significant apoptosis
